Measurements as given in ChEMBL document CHEMBL6134906, “Design, Synthesis, and Biological Evaluation of Selective STING Synergists That Enhance cGAMP-STING Pathway Activation without Inherent Agonist Activity” (J Med Chem, 2025).

The chains behind the UniProt entries cited, without tags or fusion partners. Where a name states a change or a piece, a line headed by the entry shows the natural chain unless it says otherwise.
UniProt Q86WV6: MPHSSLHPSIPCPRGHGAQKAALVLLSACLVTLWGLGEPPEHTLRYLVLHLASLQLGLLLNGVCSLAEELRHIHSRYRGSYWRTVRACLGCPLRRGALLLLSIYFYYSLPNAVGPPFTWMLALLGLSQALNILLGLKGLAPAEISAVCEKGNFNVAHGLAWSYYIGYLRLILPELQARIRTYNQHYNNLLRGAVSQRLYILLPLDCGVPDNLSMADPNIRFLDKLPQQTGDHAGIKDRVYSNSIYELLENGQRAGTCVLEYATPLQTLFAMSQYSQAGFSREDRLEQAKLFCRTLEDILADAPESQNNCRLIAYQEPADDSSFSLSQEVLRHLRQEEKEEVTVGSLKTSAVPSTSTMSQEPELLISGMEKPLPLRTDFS

Key:
[1] = biological target: T1, Stimulator of interferon genes protein (Homo sapiens, UniProt Q86WV6); settings: HEK293, filed as agonist, dose 100.0 µM, time 48.0 hrs
[2] = biological target: T2, Stimulator of interferon genes protein (Mus musculus) (UniProt Q3TBT3); settings: HEK293, filed as agonist, dose 100.0 µM, time 48.0 hrs
T2 sequence (whole entry): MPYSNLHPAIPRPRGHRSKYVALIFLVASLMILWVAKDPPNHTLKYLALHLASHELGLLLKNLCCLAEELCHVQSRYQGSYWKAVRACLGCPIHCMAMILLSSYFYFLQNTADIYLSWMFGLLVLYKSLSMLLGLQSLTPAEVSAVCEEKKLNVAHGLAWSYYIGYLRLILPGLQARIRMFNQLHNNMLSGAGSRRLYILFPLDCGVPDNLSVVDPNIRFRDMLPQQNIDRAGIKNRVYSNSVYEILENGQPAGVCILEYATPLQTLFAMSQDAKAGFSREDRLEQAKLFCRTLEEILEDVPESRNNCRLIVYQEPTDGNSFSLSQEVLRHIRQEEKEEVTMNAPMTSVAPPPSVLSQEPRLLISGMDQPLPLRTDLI

[3] = biological target: T1, Stimulator of interferon genes protein; settings: HEK293, filed as agonist, dose 33.0 µM, time 48.0 hrs
[4] = biological target: T2, Stimulator of interferon genes protein (Mus musculus); settings: HEK293, filed as agonist, dose 33.0 µM, time 48.0 hrs
[5] = biological target: T3, Stimulator of interferon genes protein (Mus musculus, UniProt Q3TBT3)
T3 sequence (Q3TBT3 whole entry): T2 sequence (whole entry)

THP-1 = test: cells; settings: Homo sapiens, THP-1, 48 h, read-out: Activity
in vivo [6] = settings: female, Sprague-Dawley, rat, iv, 1 mg/kg
in vivo [7] = settings: female, Sprague-Dawley, rat, iv, 1 mg/kg; remark: listed apart in the source
in vivo [8] = settings: female, Sprague-Dawley, rat, iv, 1 mg/kg; remark: listed apart in the source
in vivo [9] = settings: female, Sprague-Dawley, rat, iv, 1 mg/kg; remark: listed apart in the source
in vivo [10] = settings: female, Sprague-Dawley, rat, iv, 1 mg/kg; remark: listed apart in the source
in vivo [11] = settings: female, Sprague-Dawley, rat, iv, 1 mg/kg; remark: listed apart in the source
in vivo [12] = settings: female, Sprague-Dawley, rat, iv, 1 mg/kg; remark: listed apart in the source
in vivo [13] = settings: female, Sprague-Dawley, rat, po, 5 mg/kg
in vivo [14] = settings: female, Sprague-Dawley, rat, po, 5 mg/kg; remark: listed apart in the source
in vivo [15] = settings: female, Sprague-Dawley, rat, po, 5 mg/kg; remark: listed apart in the source
in vivo [16] = settings: female, Sprague-Dawley, rat, po, 5 mg/kg; remark: listed apart in the source
in vivo [17] = settings: female, Sprague-Dawley, rat, po, 5 mg/kg; remark: listed apart in the source
in vivo [18] = settings: female, Sprague-Dawley, rat, po, 5 mg/kg; remark: listed apart in the source
in vivo [19] = settings: female, Sprague-Dawley, rat, po, 5 mg/kg; remark: listed apart in the source

| EC80 [1] [µM] | EC80 [2] [µM] | EC80 [3] [µM] | EC80 [4] [µM] | IC50 [5] [µM] | half-life at 24 h (in vivo [6]) [h] | Tmax at 24 h (in vivo [7]) [h] | Cmax at 24 h (in vivo [8]) [ng/mL] | AUC(0-inf) at 24 h (in vivo [9]) [ng·h/mL] | MRT inf at 24 h (in vivo [10]) [h] | Vd at 24 h (in vivo [11]) [L/kg] | clearance at 24 h (in vivo [12]) [mL/min/kg] | half-life at 24 h (in vivo [13]) [h] | Tmax at 24 h (in vivo [14]) [h] | Cmax at 24 h (in vivo [15]) [ng/mL] | AUC(0-inf) at 24 h (in vivo [16]) [ng·h/mL] | MRT inf at 24 h (in vivo [17]) [h] | CL/F at 24 h (in vivo [18]) [mL/min/kg] | bioavailability at 24 h (in vivo [19]) [%] | SMILES | viability at 100 µM (THP-1) [%] |
| --- | --- | --- | --- | --- | --- | --- | --- | --- | --- | --- | --- | --- | --- | --- | --- | --- | --- | --- | --- | --- |
| 3.6 | 3.63 | 6.4 | 6.73 |  |  |  |  |  |  |  |  |  |  |  |  |  |  |  | CCOC(=O)Cn1c2ccc(OC)cc2c(=O)c2cc(OC)c(C)c(C)c21 |  |
| 2.28 | 4.92 | 7.43 | 7.02 |  |  |  |  |  |  |  |  |  |  |  |  |  |  |  | COc1cc2c(=O)c3cc(C)cc(C(=O)O)c3[nH]c2c(C)c1C |  |
|  | 0.72 |  | 2.61 | 2.2 | 5.28 | 0.33 | 353 | 1200 | 3.51 | 3.2 | 15.4 | 8.6 | 0.5 | 390 | 1760 | 5.89 | 78 | 29.3 | CCOC(=O)Cn1c2ccc(C)cc2c(=O)c2cc(OC)c(C)c(C)c21 | 98.1 |
